# In ChEMBL document CHEMBL5375988, “AcGlcAs: A Novel P53-Targeting Arsenical with Potent Cellular Uptake and Cancer Cell Selectivity” (J Med Chem, 2023):
# Test system: NB-4
# Assay: Antiproliferative activity against human NB4 cells expressing PML/RARalpha assessed as cell growth inhibition measured after 48 hrs by CCK-8 assay
row,SMILES,IC50
1,O=[As]c1ccccc1 (configuration not stated),30 nM
2,I[As](I)I,160 nM
